{
  "source": "patent US12110325B2",
  "about": "“TM4SF5-targeting humanized antibody and use thereof” (KOREA RESEARCH INSTITUTE OF BIOSCIENCE AND BIOTECHNOLOGY, priority 2022, dated 2024)",
  "tested_on": "SNU449T7 cells",
  "experiment": "SNU449T7 liver cancer xenograft, Ab27-hz9 versus Ab27 and cetuximab",
  "assay_type": "in vivo",
  "conditions": "300 μg/mouse/dose i.p. 3 or 4 times per week, 12 times in total; normal human IgG control",
  "description": "SNU449T7 (1×10^7) cells were subcutaneously injected into the flanks of mice. When volumes reached about 100 mm^3, the tumor-bearing mice were randomized into control and treatment groups (n=6 per group). […] Normal human IgG was injected as a negative control.\nBody weight and tumor volume were measured before injection of the antibody or drug. Tumor volumes were calculated using the formula width^2×length/2). Tumor masses were lysed as described in the literature for immunoblot analysis (J Clin Invest, 2008. 118 (4): pp. 1354-66) or tumor masses were fixed in 10% formalin and embedded in paraffin.\nFormalin-fixed and paraffin-embedded 6-μm-thick tissue sections from xenograft tumors were processed for immunohistochemistry analysis as per the standard protocol. Sections were stained with anti-Ki67 antibody (SP6; Abcam) using the peroxidase technique. The proliferative index (%) was determined by calculating the number of Ki67^+ cells relative to the total number of cells, which consisted of at least 1,000 cells per field. Five randomly selected fields from tumor sections per mouse were analyzed using ImageJ software.\nThe antitumor efficacy of Ab27-hz9 was evaluated in the SNU449T7 xenograft model. SNU449T7 cells (3×10^6) were subcutaneously injected into the flanks of mice.",
  "data": [
    {"substance": "cetuximab", "values": [
      {"measurement": "inhibited tumor growth (tumor volume)", "value": 59, "unit": "%"}
    ]}
  ]
}
